Some results for these compounds are left out of this collection, so the calls shown say nothing about other tests.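 96-well plates; 48 h exposure; 5 concentrations. Endpoints by linear interpolation between flanking doses. Not reached: highest tested concentration assigned. GI50 = concentration required for 50% inhibition of growth.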
What was measured:
Experiment in all cases: growth of human tumour cells (NCI), 48 h; in the data active means GI50 below about 0.43 µM; inactive means the rest
[1] = tested on: NCI-H460 lung
[2] = tested on: SK-MEL-5 melanoma
[3] = tested on: T-47D breast
[4] = tested on: HCT-116 colon
[5] = tested on: HS 578T breast
[6] = tested on: M14 melanoma
[7] = tested on: RPMI-8226 leukemia
[8] = tested on: SN12C renal
[9] = tested on: NCI-H226 lung
[10] = tested on: UACC-62 melanoma
[11] = tested on: COLO 205 colon
[12] = tested on: OVCAR-8 ovarian
[13] = tested on: ACHN renal
[14] = tested on: NCI-H522 lung
[15] = tested on: OVCAR-5 ovarian
[16] = tested on: CCRF-CEM leukemia
[17] = tested on: BT-549 breast
[18] = tested on: MDA-MB-231 breast
[19] = tested on: HL-60(TB) leukemia
[20] = tested on: SK-MEL-28 melanoma
[21] = tested on: MOLT-4 leukemia
[22] = tested on: NCI-H322M lung
[23] = tested on: SNB-75 CNS
[24] = tested on: SF-295 CNS
[25] = tested on: U251 CNS
[26] = tested on: UACC-257 melanoma
[27] = tested on: MDA-MB-435
[28] = tested on: MDA-N
[29] = tested on: SR leukemia
[30] = tested on: 786-0 renal
[31] = tested on: SK-MEL-2 melanoma
[32] = tested on: NCI/ADR-RES ovarian
[33] = tested on: HOP-62 NSCLC
[34] = tested on: PC-3 prostate
[35] = tested on: HOP-92 NSCLC
[36] = tested on: SF-539 CNS
[37] = tested on: CAKI-1 renal
[38] = tested on: SNB-19 CNS
[39] = tested on: A549 NSCLC
[40] = tested on: A498 renal
[41] = tested on: TK-10 renal
[42] = tested on: LOX IMVI melanoma
[43] = tested on: HT29 colon
[44] = tested on: KM12 colon
[45] = tested on: EKVX NSCLC
[46] = tested on: SW-620 colon
[47] = tested on: IGROV1 ovarian
[48] = tested on: HCT-15 colon
[49] = tested on: NCI-H23 lung
[50] = tested on: MCF7 breast
[51] = tested on: SK-OV-3 ovarian
[52] = tested on: K-562 leukemia
[53] = tested on: OVCAR-3 ovarian
[54] = tested on: MALME-3M melanoma
[55] = tested on: OVCAR-4 ovarian

Measured: GI50

CN1CCC(OC(=O)C(O)(c2ccccc2)C2CCCC2)C1 (stereo not given)
inactive: [1] > 100 µM | [2] > 100 µM | [3] > 100 µM | [4] > 100 µM | [5] > 100 µM | [6] > 100 µM | [7] > 100 µM | [8] > 100 µM | [9] > 100 µM | [10] > 100 µM | [11] > 100 µM | [12] > 100 µM | [13] > 100 µM | [14] > 100 µM | [15] > 100 µM | [16] > 100 µM | [17] > 100 µM | [18] > 100 µM | [19] > 100 µM | [20] 92 µM | [21] > 100 µM | [22] > 100 µM | [23] > 100 µM | [24] > 100 µM | [25] > 100 µM | [26] 92 µM | [27] > 100 µM | [28] > 100 µM | [29] > 100 µM | [30] > 100 µM | [31] > 100 µM | [32] > 100 µM | [33] > 100 µM | [34] > 100 µM | [35] > 100 µM | [36] > 100 µM | [37] > 100 µM | [38] > 100 µM | [39] > 100 µM | [40] 84.8 µM | [41] > 100 µM | [42] > 100 µM | [43] > 100 µM | [44] > 100 µM | [45] > 100 µM | [46] > 100 µM | [47] > 100 µM | [48] > 100 µM | [49] > 100 µM | [50] > 100 µM | [51] > 100 µM | [52] > 100 µM | [53] > 100 µM | [54] > 100 µM | [55] > 100 µM

Reference: PubChem BioAssay (NCI)
